Measured values as given in patent US20110245496A1, “Quinazoline Salt Compounds” (priority 2007, published 2011).

Assay: Salt solubility measurement in water
Conditions: stirred at ambient temperature 18-20 hours, filtered, hplc assay

CS(=O)(=O)CCNCc1ccc(-c2ccc3ncnc(Nc4ccc(OCc5cccc(F)c5)c(Cl)c4)c3c2)o1.O=C(O)c1ccccc1O
Solubility as free base: 2 µg/mL
Solubility as salt: 3 µg/mL
